Tests used:
[1] = tested on: IL-2 secretion by human effector memory T cells (TEM); test: Effector memory T cells IL-2 release assay (CD3/CD28 stimulation, HTRF IL-2 detection); settings: 24 h; for PKC-theta IL2 pIC50 (binned): binned A to G
[2] = target: Recombinant human PKC-theta (His-tagged 362-706) (Homo sapiens, UniProt Q04759); test: PKC-theta inhibition assay (HTRF KinEASE kit); settings: ATP 6.5 μM, STK substrate 525 nM; for PKC-theta HTRF pIC50 (binned): binned A to H
[3] = target: Recombinant human PKC-delta (His-tagged 345-676) (Homo sapiens, UniProt Q05655); test: PKC-delta inhibition assay (HTRF KinEASE kit); assay type: biochemical; settings: ratio, PKC-theta vs PKC-delta HTRF; for PKC-theta/PKC-delta selectivity (binned): binned A to G

By UniProt entry, the sequences of proteins in these tests, tags left out. Residues count along the entry.
UniProt Q04759, 362-706 limits assumed: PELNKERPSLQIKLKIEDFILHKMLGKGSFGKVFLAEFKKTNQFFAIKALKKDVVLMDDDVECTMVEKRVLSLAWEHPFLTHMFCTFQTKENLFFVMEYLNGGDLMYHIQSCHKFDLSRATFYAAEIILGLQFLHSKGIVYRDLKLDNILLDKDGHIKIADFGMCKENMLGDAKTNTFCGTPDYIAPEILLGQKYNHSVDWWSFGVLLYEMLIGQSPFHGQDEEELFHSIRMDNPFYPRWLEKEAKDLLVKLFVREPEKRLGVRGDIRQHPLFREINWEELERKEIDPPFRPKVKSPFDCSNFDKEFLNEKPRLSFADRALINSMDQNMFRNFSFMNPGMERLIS
UniProt Q05655, 345-676 limits assumed: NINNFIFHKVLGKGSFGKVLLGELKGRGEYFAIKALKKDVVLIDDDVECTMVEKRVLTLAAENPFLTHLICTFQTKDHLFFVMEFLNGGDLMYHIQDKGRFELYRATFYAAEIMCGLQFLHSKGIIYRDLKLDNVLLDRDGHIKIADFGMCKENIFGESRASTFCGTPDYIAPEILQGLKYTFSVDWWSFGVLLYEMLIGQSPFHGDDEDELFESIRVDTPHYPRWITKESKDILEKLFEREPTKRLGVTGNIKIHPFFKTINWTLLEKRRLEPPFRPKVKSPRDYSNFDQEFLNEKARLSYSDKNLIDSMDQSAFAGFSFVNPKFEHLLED

Row | Structure (SMILES) | PKC-theta IL2 pIC50 [1] | PKC-theta IL2 pIC50 (binned) [1] | PKC-theta HTRF pIC50 [2] | PKC-theta HTRF pIC50 (binned) [2] | PKC-theta/PKC-delta selectivity [3] | PKC-theta/PKC-delta selectivity (binned) [3]
1 | C[C@@H]1NCCN(c2cc(C(C)(F)F)cc(-c3ccnc4c3C(C)(C)C(=O)N4)n2)[C@@H]1C | 8.3 | B (a measured pIC50 of between 8.0 and 8.5) | 9.4 | A (a measured pIC50 of between 9.0 and 9.5) | 30 | B (a ratio of between 30 and 50)
2 | C[C@@H]1CNCCN1c1cc(C(C)(F)F)cc(-c2ccnc3c2C(C)(C)C(=O)N3)n1 | 8.1 | B (a measured pIC50 of between 8.0 and 8.5) | 9.0 | A (a measured pIC50 of between 9.0 and 9.5) | 18 | D (a ratio of between 10 and 20)
3 | C[C@H]1CN(c2cc(C(C)(F)F)cc(-c3ccnc4c3C(C)(C)C(=O)N4)n2)CCN1 | 7.5 | D (a measured pIC50 of between 7.0 and 7.5) | 8.5 | B (a measured pIC50 of between 8.5 and 9.0) | 23 | C (a ratio of between 20 and 30)
4 | CC(F)(F)c1cc(-c2ccnc3c2C(C)(C)C(=O)N3)nc(N2CCNCC2)c1 | 7.3 | D (a measured pIC50 of between 7.0 and 7.5) | 8.3 | C (a measured pIC50 of between 8.0 and 8.5) | 14 | D (a ratio of between 10 and 20)
5 | C[C@H]1NCCN(c2cc(C(C)(F)F)cc(-c3ccnc4c3C(C)(C)C(=O)N4)n2)[C@H]1C | 7.0 | D (a measured pIC50 of between 7.0 and 7.5) | 8.1 | C (a measured pIC50 of between 8.0 and 8.5) | 26 | C (a ratio of between 20 and 30)
